Bioassay records deposited in PubChem by Broad Institute.
In the library only some 1.8% were active in any assay of this set; here they are far more common.
E-sel inducer: E-selectin induction in HUVECs, primary screen, imaging, HUVEC, immunofluorescence imaging, single point | activation, % at 7.58 µM | hit rate 0.37% among 260,000 | normalized: neutral wells 0, TNF-alpha wells 100;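 active = mean E-selectin-positive cell signal at least 10% of the positive control, reached in at least 60% of replicates, without over 20% cell loss; inconclusive = no rule given, readout overlaps actives, possibly toxicity-flagged; inactive = the rest, including those meeting only one limit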
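Assay system: HUVEC, human umbilical vein endothelial cells / Amount: 3,000 HUVEC/well / Controls: TNF-alpha positive control, DMSO neutral control / Compound dosing: single concentration / Medium: EGM-2 over gelatin coat / Evaluation: percent E-selectin-positive cells / Signal: immunofluorescence imaging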
DENV2 CPE rescue: inhibitors of DENV2 cytopathic effect, primary screen, cell-based, plate reader, single concentration; DENV2-infected cells, cytopathic effect rescue; CPE inhibition, % at 9.99 µM; hit rate 1.7% among 350,000; AID 651640, 2012; in the data active = CPE inhibition above about 20%, passing the limit was not always enough; inconclusive = no clear call, values can overlap the other calls; tested in BHK-21 cells
Yeast UUG start: modulators of start codon recognition fidelity in yeast. activity score, % at 18.7 µM. S. cerevisiae UUG-firefly luciferase reporter, luminescence/redox ratio. 350,000 compounds, 0.13% hits;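 active means replicate mean at a twofold rise or more, about +100% in these data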;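 further: firefly luciferase made from a UUG start codon reports start codon fidelity; reporter light over untreated wells divided by growth signal over untreated wells; some hits fall short of that in this replicate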
Cneo AK release: Cryptococcus neoformans cell lysis inducers, primary screen, AK release luminescence, single concentration. AID 651654, 2012. C. neoformans lysis, adenylate kinase release luminescence, 4 h; normalised: neutral wells 0, clomiphene wells 100. lysis activity, % at 15 µM. hit rate 0.2% among 360,000;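 active = mean lysis activity across replicates of at least 80%, whatever share of replicates individually reach that level; inactive = mean lysis activity below 80%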
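Assay system: C. neoformans cells. Amount: yeast cell density of 5 × 10^6 cells/mL. Technique: AK luminescence. Buffer or medium: YPD. Times: static 4 h at 37 °C with compound, 1 h detection. Dosing: single-point compound dose. Read-out: lysis from increased AK signal.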
Each line names hits and unclear results; the compound was inactive in the other large screens; ! = not confirmed by another sample.

C[C@@H]1CCCCO[C@@H](CN(C)Cc2ccc3c(c2)OCO3)[C@H](C)CN([C@@H](C)CO)C(=O)c2cc(NC(=O)NC3CCCCC3)ccc2O1	DENV2 CPE rescue 44
C[C@H](CO)N1C[C@H](C)[C@H](CN(C)Cc2ccc3c(c2)OCO3)OCCCC[C@H](C)Oc2ccc(NC(=O)NC3CCCCC3)cc2C1=O	DENV2 CPE rescue 26
CC(C)NC(=O)Nc1ccc2c(c1)C(=O)N([C@@H](C)CO)C[C@H](C)[C@@H](CN(C)Cc1ccc3c(c1)OCO3)OCCCC[C@@H](C)O2	Cneo AK release 102 (no result: E-sel inducer)
CC(C)NC(=O)Nc1ccc2c(c1)C(=O)N([C@@H](C)CO)C[C@@H](C)[C@@H](CN(C)Cc1ccc3c(c1)OCO3)OCCCC[C@@H](C)O2	none (no result: E-sel inducer)
N#Cc1ccc(-c2ccc3c(c2)[C@@H]2[C@@H](CCN2C(=O)c2ccccc2F)[C@@H](CO)N3)cc1	none
O=C(COc1ccccc1)NCC(=O)N/N=C/c1ccc(Br)cc1	DENV2 CPE rescue 70
CCCNC(=O)N1C[C@@H]2N[C@H](C1)C2c1ccc(-c2ccccc2C)cc1 (some centres undefined)	DENV2 CPE rescue 27 (no result: Yeast UUG start, Cneo AK release)
CCCNC(=O)N1C[C@@H]2N[C@H](C1)C2c1ccc(-c2ccc(F)cc2)cc1 (some centres undefined)	DENV2 CPE rescue inconclusive (no result: Yeast UUG start, Cneo AK release)
Cc1ccccc1-c1ccc(C2[C@@H]3CN(C(=O)Cc4ccncc4)C[C@H]2N3)cc1 (some centres undefined)	DENV2 CPE rescue 86! (no result: Yeast UUG start, Cneo AK release)
CCCNC(=O)N1C[C@@H]2N[C@H](C1)C2c1ccc(-c2ccc(OC)cc2)cc1 (some centres undefined)	DENV2 CPE rescue 32! (no result: Yeast UUG start, Cneo AK release)
Cc1cccc(-c2ccc(C3[C@@H]4CN(C(=O)Cc5ccncc5)C[C@H]3N4)cc2)c1 (some centres undefined)	none (no result: Yeast UUG start, Cneo AK release)
CCCNC(=O)N1C[C@@H]2N[C@H](C1)C2c1ccc(-c2cccc(OC)c2)cc1 (some centres undefined)	none (no result: Yeast UUG start, Cneo AK release)
CCCNC(=O)N1[C@@H]2CNC[C@H]1C2c1ccc(-c2ccc(C)cc2)cc1 (some centres undefined)	DENV2 CPE rescue 38 (no result: Yeast UUG start, Cneo AK release)
CCCNC(=O)N1[C@@H]2CNC[C@H]1C2c1ccc(/C=C/c2ccccc2)cc1 (some centres undefined)	none (no result: Yeast UUG start, Cneo AK release)
COc1cc(CN2CC3(CN(C(=O)c4cccnc4)C3)c3c([nH]c4cc(OC)ccc34)[C@@H]2CO)cc(OC)c1	none (no result: Yeast UUG start, Cneo AK release)
CCNC(=O)[C@H]1[C@H](CO)[C@H]2Cn3c(cccc3=O)[C@H]2N1CC1CCCCC1	none (no result: DENV2 CPE rescue, Yeast UUG start, Cneo AK release)
COc1ccc(NC(=O)Nc2ccc3c(c2)C(=O)N([C@H](C)CO)C[C@H](C)[C@@H](CN(C)S(=O)(=O)c2ccc(Cl)cc2)OCCCC[C@H](C)O3)cc1	none (no result: E-sel inducer)
COc1cccc(C(=O)Nc2ccc3c(c2)OC[C@H](C)N(C)C[C@H](C)[C@H](OC)CN(C)C3=O)c1	none (no result: DENV2 CPE rescue, Yeast UUG start, Cneo AK release)
C[C@@H]1CCCCO[C@@H](CN(C)S(=O)(=O)c2ccc(Cl)cc2)[C@H](C)CN([C@H](C)CO)C(=O)c2cc(NC(=O)Nc3ccc(F)cc3)ccc2O1	none (no result: E-sel inducer)
C[C@@H]1CN([C@H](C)CO)C(=O)Cc2cc(NC(=O)CCCN(C)C)ccc2O[C@H]1CN(C)C	none
C[C@H](CO)N1C[C@H](C)[C@H](CN(C)C)Oc2ccc(NC(=O)Nc3ccccc3)cc2CC1=O	E-sel inducer 273
C[C@@H]1CN([C@@H](C)CO)C(=O)Cc2cc(NC(=O)Nc3ccccc3)ccc2O[C@H]1CN(C)C	none
C[C@H]1CN([C@@H](C)CO)C(=O)Cc2cc(NC(=O)Nc3ccccc3)ccc2O[C@H]1CN(C)C	E-sel inducer 42
C[C@H](CO)N1C[C@H](C)[C@@H](CN(C)C)Oc2ccc(NC(=O)CCCN(C)C)cc2CC1=O	E-sel inducer 204
C[C@@H]1CN([C@H](C)CO)C(=O)c2cc(NC(=O)Nc3cccc4ccccc34)ccc2O[C@@H](C)CCCCO[C@@H]1CN(C)S(=O)(=O)c1cccs1	DENV2 CPE rescue inconclusive
Cc1ccc(S(=O)(=O)N(C)C[C@@H]2Oc3ccc(N(C)C)cc3CC(=O)N([C@H](C)CO)C[C@@H]2C)cc1	none
O=C(C[C@H]1CC[C@H]2[C@@H](COC[C@H](O)CN2C(=O)Nc2ccc(Cl)c(Cl)c2)O1)NCc1ccncc1	none (no result: Yeast UUG start)
CO[C@H]1CN(C)C(=O)c2cc(NC(=O)NC3CCCC3)ccc2OC[C@H](C)NC[C@@H]1C	none (no result: DENV2 CPE rescue, Yeast UUG start, Cneo AK release)
